Results from ChEMBL document CHEMBL1795228, “Air to lung partition coefficients for volatile organic compounds and blood to lung partition coefficients for volatile organic compounds and drugs” (Eur J Med Chem, 2008).

Assay: In-vivo plasma to lung partition coefficients of the compound, logP(lung) in rat
Type: ADME, cell-free

## Cc1cc2c(s1)Nc1ccccc1N=C2N1CCN(C)CC1 [OLANZAPINE]
  logP(lung): 1.43
